In PMC4865847, “Putative histidine kinase inhibitors with antibacterial effect against multi-drug resistant clinical isolates identified by in vitro and in silico screens” (Scientific Reports, 2016):
In brackets after ≈: the same amount, converted by molar mass.

Key:
Format in all cases: cell-based
[1] = tested on: Escherichia coli; assay: Antibacterial susceptibility testing (MIC/MBC), E. coli; settings: read-out: MIC E. coli CFT 073
Protocol: (§1) Minimal inhibitory concentrations (MICs) were determined following a standard double-dilution method. […] For S. pneumoniae MICs were determined by adapting the standard double-dilution method to anaerobic conditions and of this microorganism (use of Todd Hewitt Yeast extract with 200 U/mL of catalase and continuous monitoring of growth).

[2] = tested on: Staphylococcus aureus; assay: Antibacterial susceptibility testing (MIC/MBC), S. aureus; settings: DSM20231, read-out: MIC S. aureus DSM 20231
Protocol: as §1

[3] = tested on: Staphylococcus epidermidis; assay: Antibacterial susceptibility testing (MIC/MBC), S. epidermidis; settings: DSM20044, read-out: MIC S. epidermidis DSM 20044
Protocol: as §1

SMILES: Nc1nc(-c2ccc(O)cc2)cs1 [F1.1]
- MIC [1]: 500 mg/L (≈ 2600 µM)
- MIC [2]: 500 mg/L (≈ 2600 µM)
- MIC [3]: > 500 mg/L
